Values of other authors in PubChem BioAssay AID1811 (Shanghai Institute of Organic Chemistry, 2009).
Some of the results follow. Activity calls are given as the source filed them. Unless stated, no cut-off for active and inactive is given here.

System: heat shock protein 90 alpha
Test: PubChem AID 1811
Details: PDB complex binding affinities from literature

SMILES | outcome
CS(=O)(=O)c1ccc(CN2CCN(c3cn[nH]c3-c3cc(Cl)c(O)cc3O)CC2)cc1 | active
O=S(=O)(Nc1ccc(O)c(-c2c(O)ccc3ccccc23)c1)c1cc(Cl)ccc1Cl | active
